Measured values: US20080031982A1 (published 2008)
Marks after values point to notes of the source that are not given here.

How the values were obtained:
[1] = Non-fasting serum glucose in KK-Ay diabetic mice; format: in vivo, KK-A^y/Ta mice; conditions: 1.0 mg/kg-day by gavage, three days
[2] = Serum insulin in KK-Ay diabetic mice; format: in vivo, KK-A^y/Ta mice; conditions: 1.0 mg/kg-day by gavage, three days

CN(CCOc1ccc(CC2SC(=O)NC2=O)cc1)c1ccccn1 (centres unmarked) [rosiglitazone]
Glucose [% Pretreatment] [1]: 80.3# % Pretreatment
Insulin [% Pretreatment] [2]: 88.7 % Pretreatment
